Results: PMC12509328, “Human Internal Exposures of Bisphenol A and Six Data-Poor Analogs Predicted by Physiologically Based Kinetic Models with Multimodal Parametrization” (Environmental Science & Technology, 2025)

Test: Present human PBK model, model evaluation (scenarios 3 and 4)
Settings: present model vs Oh et al. (BPS dosing)
From the text: Diet is the main route of human exposure to bisphenols; therefore, models were designed herein for oral administration. Several exposure scenarios were defined for parameter gathering, model evaluation, and internal exposure assessment (Table ). In scenarios 1 and 2, a rat PBK model was used to parametrize enterohepatic circulation (EHC) rates for application in human PBK models. […] Models were developed for four human physiologies: male (“man”) and female adults (“woman”), male “child”, and male “toddler” (Table S2). These models were selected based on available physiological data for key organs (thyroid, breasts, and testes), related to ED and the detected bisphenol exposure level. The repeated dose scheme from Karrer et al. was reproduced (scenarios 9 to 12) to model chronic exposure via three meals a day.
A common model structure was employed for the seven bisphenols (Figure ). When not individually compartmentalized, organs were categorized as either slowly perfused tissues or rapidly perfused tissues and combined. […]
To address parameter uncertainty in concentrations that were predicted with human PBK models, 10,000 Monte Carlo (MC) simulations were performed. […] MC simulation outcomes were analyzed by comparing the first quartile, the median, and the third quartile values of concentrations per time point.

**Q.** For `O=S(=O)(c1ccc(O)cc1)c1ccc(O)cc1` [BPS, Bisphenol S], which “mean predicted AUC, times higher than in vivo” value is on record?
**A.** The value was 4 times.
